PubChem BioAssay AID449763 (Sanford-Burnham Center for Chemical Genomics, 2010)
This is a selection; strong and weak results do not stand in their true shares. The source made the active and inactive calls.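 The calls were made as follows: active = at 10 µM dose, activation of 40% or more, normalized to positive control; inactive = the rest.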

Assay: PERK-eIF2a-CHOP pathway stimulators – cell-based, CHO-CHOP luciferase reporter, luminescence, uHTS, primary screen (AID 449763);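 also: 100% = tunicamycin at 10 µg/mL and 0% = DMSO alone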
Details: UPR activation, at 10 µM, active compounds read high, percent of tunicamycin response over DMSO baseline
Summary of the method: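 System: CHO-CHOP luciferase reporter cell line | Buffer or medium: F12 medium containing 10% fetal bovine serum | Doses: One dose, 10 µM in 0.5% DMSO | Times: 6 h compound exposure at 37 °C after overnight seeding | Signal: Luciferase luminescence | Read-out: % activation vs tunicamycin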
With `O=P1(Nc2ccc(Br)cn2)COc2ccccc2OC1` the activation was inactive: -1.22%.
For `NS(=O)(=O)c1cccc(NC(=O)COC(=O)C(O)(c2ccccc2)c2ccccc2)c1`, the activation was inactive: 2.39%.
In the case of `O=[As](O)(c1cccs1)c1cccs1`, the activation is reported as inactive: 0.0534%.
With `Cc1ccc(OCC(=O)OC2CN3CCC2CC3)cc1` (stereo not given) the activation was inactive: 4.59%.
With `Nc1cccc([As](=O)(O)c2ccccc2)c1` the activation was inactive: -1.5%.
With `O=P1(Nc2ncccn2)COc2ccccc2OC1` the activation was inactive: -0.877%.
With `O=C(/C=C/c1ccccc1)OC1CN2CCC1CC2` (stereo not given) the activation was inactive: -3.17%.
For `CN(C)C1(CNC(=O)c2ccc(S(C)(=O)=O)cc2)CCCCC1`, the activation was inactive: -1.47%.
With `Cc1nn(-c2ccccc2)c2c1P(=O)(N1CCOCC1)N(C)C(c1ccccc1)=N2` (stereo not given) the activation was inactive: 1.05%.
With `CC1CCC(C(C)C)C(OP(=O)(Nc2ccccn2)c2ccccc2)C1` (stereo not given) the activation was inactive: 0.95%.
In the case of `Cc1ccc(C(=O)OC2CN3CCC2CC3)cc1` (stereo not given), the activation is reported as inactive: 0.341%.
With `O=[As](O)(c1ccccc1Br)c1ccccc1Br` the activation was inactive: -0.443%.
With `CC1(CBr)Cn2c(nc3ccccc3c2=O)S1` (stereo not given) the activation was inactive: 0.515%.
With `CC(C)/C=N\N=C(\N)N[N+](=O)[O-]` the activation was inactive: 1.1%.
In the case of `CN(C(=O)Cc1ccc(Cl)c(Cl)c1)[C@@H]1CCCC[C@H]1N1CCCC1`, the activation is reported as inactive: -0.704%.
For `COc1ccccc1CNC(=O)COC(=O)C(O)(c1ccccc1)c1ccccc1`, the activation was inactive: -0.851%.
For `Clc1n[nH]nc1-c1nn[nH][15n]1`, the activation was inactive: -0.754%.
In the case of `CC(C)(C)C(=O)NC(Sc1ncccn1)C(Cl)(Cl)Cl` (stereo not given), the activation is reported as inactive: -0.45%.
With `CN(CCCl)Cc1cc(Cl)c(NC2=NCCN2)c(Cl)c1` the activation was inactive: 0.389%.
For `CCOP(=O)(Nc1ccc(C)cn1)OCC`, the activation was inactive: -0.905%.
For `O=P1(Nc2ccccn2)COc2ccccc2OC1`, the activation was inactive: -0.874%.
In the case of `CCC1=CC2Cc3nc4ccc(Cl)cc4c(N)c3C(C1)C2` (stereo not given), the activation is reported as inactive: -1.14%.
In the case of `CCOP(=O)(NC(=NC(C)c1ccccc1)NC(C)c1ccccc1)OCC` (stereo not given), the activation is reported as inactive: 0.814%.
With `COc1cc(C2NCCC3(OCCO3)C2(C)C)cc(OC)c1OC` (stereo not given) the activation was inactive: 1.76%.
For `CCOP(=O)(Nc1cccc2ccccc12)OCC`, the activation was inactive: 0.818%.
For `CCCOP(=S)(Nc1nc(N)cc(=O)[nH]1)OCCC`, the activation was inactive: 2.27%.
In the case of `Cc1ccc(NCCc2c([N+](=O)[O-])cc([N+](=O)[O-])cc2[N+](=O)[O-])cc1`, the activation is reported as inactive: 3.46%.
In the case of `O=[As](O)(c1cccc(O)c1)c1cccc(O)c1`, the activation is reported as inactive: -0.721%.
With `Cc1cccc(OCC(=O)OC2CN3CCC2CC3)c1` (stereo not given) the activation was inactive: 3.66%.
In the case of `COc1cc(C(=O)NCC2(N3CCOCC3)CCCCC2)cc(Cl)c1OC(C)C`, the activation is reported as inactive: 0.863%.
With `O=[As](O)(O)c1cccnc1` the activation was inactive: -0.136%.
For `CS(=O)(=O)c1ccc(Cl)c(NC(=O)COC(=O)C(O)(c2ccccc2)c2ccccc2)c1`, the activation was inactive: -0.778%.
For `O=C(OC1CN2CCC1CC2)c1ccc(Cl)cc1` (stereo not given), the activation was inactive: 0.5%.
In the case of `CN(C)C(=O)c1cc([N+](=O)[O-])cc2c1-c1c(cc([N+](=O)[O-])cc1[N+](=O)[O-])C2=O`, the activation is reported as inactive: -10.4%.
In the case of `O=[N+]([O-])c1ccc2c(c1)nnn2O`, the activation is reported as inactive: 0.273%.
In the case of `CN(C(=O)Cc1ccc(Cl)c(Cl)c1)[C@H]1CC[C@@]2(CCCO2)C[C@@H]1N1CCCC1`, the activation is reported as inactive: 1.54%.
With `N#CCCN(C(=O)COC(=O)C(O)(c1ccccc1)c1ccccc1)c1ccc(F)cc1` the activation was inactive: 4.89%.
In the case of `CCOP1(=S)c2c(C)nn(CCC#N)c2N=C(c2ccc(F)cc2)N1C` (stereo not given), the activation is reported as inactive: -0.762%.
For `CN(C(=O)Cc1ccccc1)[C@@H]1CC[C@]2(CCCO2)C[C@H]1N1CCCC1`, the activation was inactive: -0.926%.
With `NC(=O)Nc1ccc([As](=O)(O)O)cc1` the activation was inactive: 3.88%.
With `Nc1ccccc1[As](=O)(O)c1ccccc1` the activation was inactive: -0.45%.
With `O=C(O)COc1ccc([As](=O)(O)O)cc1[N+](=O)[O-]` the activation was inactive: -3.64%.
With `CS(=O)(=O)c1cc([N+](=O)[O-])c2no[n+]([O-])c2c1` the activation was inactive: 1.68%.
With `CCOP1(=S)c2c(C)nn(CCC#N)c2N=C(c2ccccc2F)N1C` (stereo not given) the activation was inactive: 2.19%.
For `O=P(Nc1nccs1)(c1ccccc1)c1nc2ccccc2s1` (stereo not given), the activation was inactive: 1.51%.
For `O=P(Nc1nccs1)(Oc1ccccc1)Oc1ccccc1`, the activation was inactive: -1.65%.
For `O=C(OC1CN2CCC1CC2)c1cccc2[nH]cnc12` (stereo not given), the activation was inactive: -1.24%.
In the case of `CCN(CC)C(=S)SC(NC=O)C(Cl)(Cl)Cl` (stereo not given), the activation is reported as active: 183%.
In the case of `CC(C)NC(=O)NP(=O)(Oc1ccccc1)Oc1ccccc1`, the activation is reported as inactive: -0.474%.
For `O=[N+]([O-])c1cc([N+](=O)[O-])c(-c2ccn[nH]2)s1`, the activation was inactive: -0.139%.
In the case of `CC(C)c1ccc(OP(=O)(Nc2ccccn2)Oc2ccccc2F)cc1` (stereo not given), the activation is reported as inactive: 0.848%.
With `ClCCSc1nnc(-c2cccnc2)o1` the activation was inactive: -0.653%.
For `Cc1ccc2nc3c(c(C)c2c1)CC(C(Cl)Cl)S3` (stereo not given), the activation was inactive: 4.92%.
For `Cc1ccc(OP(=O)(Nc2ccc([N+](=O)[O-])cn2)Oc2ccc(C)cc2)cc1`, the activation was inactive: -0.223%.
In the case of `C[As](=O)(O)c1cccc(C(=O)O)c1`, the activation is reported as inactive: -1.77%.
With `O=[As](O)(c1ccc(O)cc1)c1ccccc1O` the activation was inactive: 0.0762%.
With `COc1cc(C(=O)NCC2(N3CCOCC3)CCCCC2)ccc1OCC(C)C` the activation was inactive: -1.26%.
In the case of `COc1ccc(N/C(=N/P(=O)(N2CCOCC2)N2CCOCC2)N2CCOCC2)cc1`, the activation is reported as inactive: 0.153%.
In the case of `COc1ccc2nc(NP(=O)(c3ccccc3)c3ccccc3)sc2c1`, the activation is reported as inactive: -1.28%.
For `COc1cc(I)ccc1[As](=O)(O)O`, the activation was inactive: 0.791%.
With `O=C(OC1CN2CCC1CC2)C12CC3CC(CC(C3)C1)C2` (stereo not given) the activation was inactive: -0.0224%.
With `Cc1cc(=O)[nH]c(N[N+](=O)[O-])n1` the activation was inactive: -2.05%.
In the case of `Cc1c2c(nc3ccccc13)SC(C(Cl)Cl)C2` (stereo not given), the activation is reported as inactive: 1.12%.
For `CCC(C)N(CC(C)C)C(=S)SC(NC(C)=O)C(Cl)(Cl)Cl` (stereo not given), the activation was inactive: 2.55%.
With `CCOC(=O)c1ccc(NC(=O)C(C)(CCl)SC)cc1` (stereo not given) the activation was inactive: 0.24%.
For `O=C(OC1CN2CCC1CC2)c1cccc([N+](=O)[O-])c1` (stereo not given), the activation was inactive: 1.94%.
For `O=C(COc1ccccc1)OC1CN2CCC1CC2` (stereo not given), the activation was inactive: -0.786%.
For `O=C(Nc1ccncc1[N+](=O)[O-])c1ccc([N+](=O)[O-])cc1[N+](=O)[O-]`, the activation was inactive: -0.983%.
In the case of `COP1(=S)c2c(C)nn(CCC#N)c2N=C(c2ccc(F)cc2)N1C` (stereo not given), the activation is reported as inactive: -2.36%.
For `O=P(Nc1ccccn1)(c1cccc2ccccc12)c1cccc2ccccc12`, the activation was inactive: -0.616%.
With `Cc1cc(SC(NC=O)C(Cl)(Cl)Cl)ncn1` (stereo not given) the activation was inactive: -0.819%.
With `CCOC(=O)Nc1cccc([As](=O)(O)O)c1` the activation was inactive: -0.185%.
In the case of `CCCCOc1ccc(C(=O)NCC2(N3CCCCC3)CCCCC2)cc1OC`, the activation is reported as inactive: 1.87%.
In the case of `Cc1cc(SC(NC(=O)c2ccccc2)C(Cl)(Cl)Cl)nc(C(C)C)n1` (stereo not given), the activation is reported as inactive: 1.5%.
In the case of `CCOC(=O)Nc1ccc([As](=O)(O)O)c(O)c1`, the activation is reported as inactive: 5.12%.
With `O=[N+]([O-])c1cccc(NC2=NCC(CBr)S2)c1` (stereo not given) the activation was inactive: -0.159%.
With `CC(C)(C)C(=O)NC(Sc1ccncn1)C(Cl)(Cl)Cl` (stereo not given) the activation was inactive: -2.18%.
For `O=[N+]([O-])c1ncn(CCn2ncnc2[N+](=O)[O-])n1`, the activation was inactive: 1.71%.
With `O=C(Nc1cc([As](=O)(O)O)ccc1O)c1ccccc1` the activation was inactive: 1.95%.
In the case of `CC(C)=N/N=C(\N)N[N+](=O)[O-]`, the activation is reported as inactive: -1.44%.
With `CN(C)C(=O)OCCc1n(C)cc[n+]1C` the activation was inactive: 3.58%.
For `CC1CCN(C(=O)Oc2c(Cl)cc(Cl)c3cccnc23)CC1`, the activation was inactive: -3.79%.
For `Nc1ccc([As](=O)(O)c2ccc(N)cc2)cc1`, the activation was inactive: 2.34%.
For `C[N+]1=C2C=CC=CC=C2SC12C([N+](=O)[O-])=CC([N+](=O)[O-])=C[C-]2[N+](=O)[O-]` (stereo not given), the activation was active: 320%.
For `CCN(/C(=N/P(=O)(N1CCOCC1)N1CCOCC1)N1CCOCC1)c1ccc(OC)cc1`, the activation was inactive: -0.255%.
With `O=[N+]([O-])c1cccc2n[nH]nc12` the activation was inactive: -1.03%.
With `CC(=O)N1C2C3N(C(C)=O)C1C1N(C(C)=O)C(C(N1C(C)=O)N3C(C)=O)N2C(C)=O` the activation was inactive: 0.163%.
With `Cc1ccc(NP(=O)(Oc2ccccc2)Oc2ccccc2)nc1` the activation was inactive: -0.638%.
For `CCc1nc2c(n1)c1c(non1O)c1c2no[n+]1[O-]`, the activation was inactive: 33.3%.
With `O=[N+]([O-])c1cc([N+](=O)[O-])c(CCNc2ccccc2)c([N+](=O)[O-])c1` the activation was inactive: 0.797%.
For `COc1ccc(C2=NCC(CBr)S2)cc1` (stereo not given), the activation was inactive: 0.424%.
For `CC(C)CC(=O)NC(Sc1ccc(Cl)cc1)C(Cl)(Cl)Cl` (stereo not given), the activation was inactive: -2.29%.
For `Nc1cc(N)c2nonc2c1[N+](=O)[O-]`, the activation was inactive: 0.66%.
For `Oc1ccccc1CNc1ccccn1`, the activation was inactive: 0.499%.
For `Cc1c2non([O-])c-2c(C)[n+](=O)[n+]1[O-]`, the activation was inactive: 26.5%.
In the case of `O=C(NC(Sc1ccncn1)C(Cl)(Cl)Cl)c1ccccc1` (stereo not given), the activation is reported as inactive: 2.05%.
In the case of `COc1ccccc1OP(=O)(Nc1ccc(C)cn1)Oc1ccccc1OC`, the activation is reported as inactive: -0.0321%.
In the case of `Cc1ccc(OP(=O)(Nc2nccs2)Oc2ccc(C)cc2)cc1`, the activation is reported as inactive: -0.299%.
With `Clc1ccc(Cl)c(NC2=NCC(CBr)S2)c1` (stereo not given) the activation was inactive: 1.35%.
For `CN1CCCC(OC(=O)C(c2ccccc2)c2ccccc2)C1` (stereo not given), the activation was inactive: 1.03%.
